Experiments:
δ-opioid receptor = δ-opioid receptor (Mus musculus, UniProt P32300); assay: Electrically stimulated mouse vas deferens; type: cell-based
δ-opioid receptors = δ-opioid receptors (Rattus norvegicus, UniProt P33533); conditions: from affinity data, ref Guerrini et al.[17]; cited from earlier work

By UniProt entry, the sequences of proteins in these tests, tags left out. Where a name states a change or a piece, a line headed by the entry shows the natural chain unless it says otherwise.
UniProt P32300, whole entry: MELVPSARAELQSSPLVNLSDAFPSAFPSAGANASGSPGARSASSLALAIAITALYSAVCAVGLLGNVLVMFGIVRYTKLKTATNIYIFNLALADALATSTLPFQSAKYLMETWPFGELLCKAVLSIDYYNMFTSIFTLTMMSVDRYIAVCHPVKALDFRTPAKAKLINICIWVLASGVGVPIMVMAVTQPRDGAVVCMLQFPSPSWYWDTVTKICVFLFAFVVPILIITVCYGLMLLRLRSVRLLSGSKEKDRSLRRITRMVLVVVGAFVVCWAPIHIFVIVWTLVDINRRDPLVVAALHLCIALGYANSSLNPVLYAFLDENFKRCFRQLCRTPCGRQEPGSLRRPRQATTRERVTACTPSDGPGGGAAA
UniProt P33533, whole entry: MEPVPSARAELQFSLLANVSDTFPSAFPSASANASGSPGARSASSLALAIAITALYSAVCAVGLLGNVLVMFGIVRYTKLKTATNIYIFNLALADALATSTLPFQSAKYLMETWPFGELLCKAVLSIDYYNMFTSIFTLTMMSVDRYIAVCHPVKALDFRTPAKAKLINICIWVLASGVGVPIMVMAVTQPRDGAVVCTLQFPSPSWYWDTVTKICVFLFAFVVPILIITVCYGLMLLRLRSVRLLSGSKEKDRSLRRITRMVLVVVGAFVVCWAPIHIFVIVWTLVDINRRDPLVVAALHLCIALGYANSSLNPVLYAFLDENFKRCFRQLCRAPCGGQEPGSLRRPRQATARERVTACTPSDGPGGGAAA

SMILES: CC(C)[C@H](NC(=O)[C@H](CCC(=O)O)NC(=O)[C@H](Cc1ccccc1)NC(=O)[C@@H](C)NC(=O)[C@@H](N)Cc1ccc(O)cc1)C(=O)N[C@H](C(=O)NCC(N)=O)C(C)C [Compound 9, H-Tyr-D-Ala-Phe-Glu-Val-Val-Gly-NH2]
- IC50 (δ-opioid receptor): 0.53 ± 0.02 nM
- selectivity Ki^μ/Ki^δ (δ-opioid receptors): 5317
